Experimental data published in ChEMBL document CHEMBL1158584, “Mono-, di-, and triaryl substituted tetrahydropyrans as cyclooxygenase-2 and tumor growth inhibitors. Synthesis and biological evaluation” (J Med Chem, 2010).

Key:
[1] = test system: NCI-H322M; details: Homo sapiens, 48 h
[2] = test system: NCI-H322M; test: cells; details: Homo sapiens, 48 h; for CC50: read-out: LC50

CCSC[C@@H]1C[C@](O)(c2ccccc2)[C@@H](c2ccccc2)[C@H](c2ccc(Cl)cc2)O1 (relative stereo)
TGI [1]: 5.1 µM | GI50 [2]: 1.94 µM | CC50 [2]: > 100 µM

CCSC[C@@H]1C[C@](O)(c2ccccc2)[C@@H](c2ccccc2)[C@H](c2ccc(F)cc2)O1 (relative stereo)
TGI [1]: 6.45 µM | GI50 [2]: 2.29 µM | CC50 [2]: > 100 µM

N#CSC[C@@H]1C[C@@](O)(c2ccccc2)C[C@H](c2ccc(F)cc2)O1 (relative stereo)
TGI [1]: 13.8 µM | GI50 [2]: 3.31 µM | CC50 [2]: 44.6 µM

N#CSC[C@@H]1C[C@@](O)(c2ccccc2)C[C@H](c2ccc(Cl)cc2)O1 (relative stereo)
CC50 [2]: 52.4 µM

N#CSC[C@@H]1C[C@](O)(c2ccccc2)[C@@H](c2ccccc2)[C@H](c2ccc(Cl)cc2)O1 (relative stereo)
TGI [1]: 7.76 µM | GI50 [2]: 2.23 µM | CC50 [2]: 58.8 µM

N#CSC[C@@H]1C[C@](O)(c2ccccc2)[C@@H](c2ccccc2)[C@H](c2ccc(F)cc2)O1 (relative stereo)
TGI [1]: 26.9 µM | GI50 [2]: 4.78 µM | CC50 [2]: > 100 µM

CCSC[C@@H]1C[C@@](O)(c2ccccc2)C[C@H](c2ccc(F)cc2)O1 (relative stereo)
TGI [1]: 7.76 µM | GI50 [2]: 2.18 µM | CC50 [2]: 29.5 µM
